# Binding of CDR-mutated scFvs to a peptide of the spike HR2 region

Source: Engelhart et al. 2022 (doi:10.1038/s41597-022-01779-4), MIT Lincoln Laboratory and A-Alpha Bio; data file from the FLAb repository.

Target: peptide PDVDLGDISGINAS, taken from heptad repeat 2 (HR2) of SARS-CoV-2 spike.

Ab-14 is the parent antibody, in scFv form: VH, then a (GGGGS)3 linker, then VL. The heavy chain is unchanged in all variants.
VH: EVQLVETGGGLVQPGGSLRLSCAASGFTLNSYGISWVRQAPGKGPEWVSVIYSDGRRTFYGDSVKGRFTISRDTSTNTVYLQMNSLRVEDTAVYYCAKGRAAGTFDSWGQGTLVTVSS
VL: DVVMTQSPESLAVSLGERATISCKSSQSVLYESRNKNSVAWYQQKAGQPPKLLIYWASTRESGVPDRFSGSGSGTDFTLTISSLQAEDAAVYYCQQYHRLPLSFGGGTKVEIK

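The starting antibody came from a phage panning campaign against this peptide. Variants in AAYL50 differ from the parent at up to three CDR positions; double and triple changes were sampled at random. Affinity was read by AlphaSeq, a pooled yeast mating assay with surface-displayed partners. After mating in shaken culture at 30 °C for 16 h, diploids were selected and their barcode pairs sequenced. A regression on co-assayed BCL2-family reference pairs converts the normalised counts of each replicate to an apparent Kd. There are three technical replicates.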

The parent's light chain CDRs are KSSQSVLYESRNKNSVA, WASTRES, QQYHRLPLS; each variant's own CDRs replace them letter for letter.
The read-out is the apparent dissociation constant on a log10 scale (nM): the lower, the stronger.
"nd" means that the variant was in the library but no mating with the target was seen in that replicate; the authors take this as a sign of poor binding, and no number exists.

CDR-L1 | CDR-L2 | CDR-L3 | replicates, log10 nM | signal with controls
KSSHSVLYESSNKNSVA | WASTRES | VQYHRLPLS | 0.73 0.87 1.03 | 0/9
KSIQSVLYEQRNKNSVA | WASTDES | QQYHRLPLS | nd nd nd | 0/9
KPSQSVLYESRNKNSVA | WASTRES | QQYHRLPNS | 2.47 2.30 2.52 | 1/9 (3.99)
KKSQSVLYESRNKNSVE | WASTRPS | QQYHRLPLS | nd nd nd | 0/9
KSSQSVLYESRVKISLA | WASTRES | QQYHRLPLS | 4.99 5.52 nd | 3/9 (3.27)
KSSQSVLYESRNKNSGA | WASTRES | QQYHRLPLC | 3.93 nd nd | 3/9 (4.17)
KSSQSVLYESRNKNSVA | WASTAET | SQYHRLPLS | nd nd nd | 1/9 (4.07)
KSSQVVLYESRNKNSVA | WASTRES | QQNYRLPLS | nd nd nd | 0/9
KSSTSVLYESRNKNSVS | WASTRES | QRYHRLPLS | 3.39 nd 5.48 | 0/9
KSSQNVLYESRNKNSVA | QASTRMS | QQYHRLPLS | -0.01 0.27 0.05 | 8/9 (4.86)
KSSQSVLYESRNKNSVA | WVSTRTY | QQYHRLPLS | 3.08 2.36 2.60 | 1/9 (2.87)
KSSQSVLYESRNKNSVA | WADTRMS | QQQHRLPLS | nd nd 4.08 | 2/9 (4.63)
KSSQSVLYESRNKNSVA | WASTRES | QQYHRLSYS | 3.65 nd 4.22 | 2/9 (4.15)
GSSQSVEYESRNKNSVA | WASTIES | QQYHRLPLS | 4.01 3.21 nd | 4/9 (3.93)
KSSQSSLYHSRNKNSVA | WASTRES | QQYARLPLS | nd nd nd | 0/9
KSSQHVLYESREKNSVA | WASTRES | QGYHRLPLS | 1.79 1.87 1.96 | 4/9 (4.82)
KSMQSVLYESRNKNSVA | WISTRES | QQMHRLPLS | nd nd nd | 1/9 (3.87)
KSSQSVLYESRNKNSVA | WAHTRES | QQYHRLEFS | nd nd nd | 1/9 (3.74)
KSSQIWLYESRNKNSVA | WASTRES | QFYHRLPLS | 4.15 3.14 3.75 | 4/9 (4.55)
KSSQSVLYESRNKNSVA | WAVTRES | QDYHRLPLF | 4.69 3.23 3.50 | 2/9 (3.50)
KSSASVLYESRNKNSVA | WNSTRES | QQYHRLPLS | 5.84 nd nd | 2/9 (3.93)
KSSQSVLYESRNKFSVA | WASTRES | QQYQRLPLS | 0.97 1.18 1.03 | 0/9
KRSQSVLYTSRNKNSVA | WASTRES | QQYYRLPLS | 1.01 1.36 1.60 | 2/9 (3.33)
KSSQSDLYESRNKNSVA | WASERES | NQYHRLPLS | 1.82 1.49 1.79 | 2/9 (3.79)
KSSQSVLYESRNSNSVA | WASTREA | QQYHKLPLS | 1.56 1.46 1.73 | 1/9 (3.12)
KISQSWLYESRNKNSVA | WASTRED | QQYHRLPLS | 0.46 0.66 0.60 | 1/9 (3.73)
KSSQSVLYEHRNKNSVA | WASTNES | RQYHRLPLS | nd nd 3.82 | 2/9 (4.53)
KSSQSVLYESRNKNSVA | PASTRYS | QQRHRLPLS | nd nd nd | 2/9 (3.87)
KSSQSVLVESRNKNSVA | WASTRES | QQYHQEPLS | nd nd nd | 2/9 (3.60)
KSSQQVLWESRNKNSVA | WASTRES | QQYHRLYLS | 2.11 2.00 2.01 | 0/9
SSSQSVLYESPNKNSVA | WASTRES | QQYHRLPLS | 1.73 1.74 1.75 | 2/9 (3.96)
KSSQSVLYEERNKNSVA | WASTRES | QQYRILPLS | 0.99 1.06 0.97 | 2/9 (4.09)

Extract of 4 entries:

{"CDR-L1": "KSSQSVLYEHRNKNSVA", "CDR-L2": "WASTNES", "CDR-L3": "RQYHRLPLS", "replicates, log10 nM": "nd nd 3.82", "signal with controls": "2/9 (4.53)"}
{"CDR-L1": "KSSQSSLYHSRNKNSVA", "CDR-L2": "WASTRES", "CDR-L3": "QQYARLPLS", "replicates, log10 nM": "nd nd nd", "signal with controls": "0/9"}
{"CDR-L1": "KSSQSVLYESRNKNSVA", "CDR-L2": "WAVTRES", "CDR-L3": "QDYHRLPLF", "replicates, log10 nM": "4.69 3.23 3.50", "signal with controls": "2/9 (3.50)"}
{"CDR-L1": "KKSQSVLYESRNKNSVE", "CDR-L2": "WASTRPS", "CDR-L3": "QQYHRLPLS", "replicates, log10 nM": "nd nd nd", "signal with controls": "0/9"}

Nonspecific signal, from three strains lacking the peptide, appeared in 18% of pairings of library AAYL50, centred on 4.19 (5% of these signals below 2.99); values are not corrected for it. For each scFv, signals with the empty controls are counted beside the result, with their mean in brackets.